Test results as given in patent US20260116920A1, “HUMAN TRANSFERRIN RECEPTOR BINDING PEPTIDE” (PEPTIDREAM INC., priority 2021, published 2026).

By UniProt entry, the sequences of proteins in these tests, tags left out. Residues count along the entry.
UniProt P02786, 89-760 limits assumed: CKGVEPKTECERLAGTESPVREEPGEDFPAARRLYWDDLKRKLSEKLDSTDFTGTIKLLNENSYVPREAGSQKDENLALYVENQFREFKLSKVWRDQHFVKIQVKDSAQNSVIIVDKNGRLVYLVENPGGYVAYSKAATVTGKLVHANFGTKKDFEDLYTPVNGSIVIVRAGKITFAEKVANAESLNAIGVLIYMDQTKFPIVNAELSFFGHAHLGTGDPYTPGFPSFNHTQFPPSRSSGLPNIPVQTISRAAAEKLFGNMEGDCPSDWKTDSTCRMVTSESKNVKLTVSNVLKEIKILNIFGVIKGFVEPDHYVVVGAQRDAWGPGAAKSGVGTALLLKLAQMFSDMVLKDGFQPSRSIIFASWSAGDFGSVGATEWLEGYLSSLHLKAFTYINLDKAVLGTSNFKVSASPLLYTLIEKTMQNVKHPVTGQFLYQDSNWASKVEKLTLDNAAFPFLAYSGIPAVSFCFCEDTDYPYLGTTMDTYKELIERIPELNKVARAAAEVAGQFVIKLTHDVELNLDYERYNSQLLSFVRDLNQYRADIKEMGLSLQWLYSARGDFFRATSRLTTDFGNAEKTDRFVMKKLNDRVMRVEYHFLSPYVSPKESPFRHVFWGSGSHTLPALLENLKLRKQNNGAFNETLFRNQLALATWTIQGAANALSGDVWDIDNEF

Target: T1, human transferrin receptor (hTfR) (Homo sapiens, UniProt P02786)
T1 construct: made in house
Assay: Evaluation of molecular interaction between transferrin receptor (hTfR) and peptide using surface plasmon resonance (SPR)
Format: binding
Settings: KD class of peptide with linker binding to hTfR, by SPR (TABLE 5); read-out: SPR
In short: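 Single-cycle SPR kinetics, KD by least-squares sensorgram fitting, with peptide series of 100, 50, 25, 10 and 5 nM. Running buffer: 10 mM HEPES pH 8.0, 150 mM NaCl, 0.05% Tween 20, 0.1% BSA, 1.0% DMSO. Surface: hTfR dimer covalently coupled (EDC/NHS) onto Ni-NTA chip.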

SMILES | Kd
CC[C@H](C)[C@@H]1NC(=O)[C@H](Cc2ccc(O)cc2)NC(=O)[C@H](Cc2ccc(O)cc2)NC(=O)[C@H](CC(N)=O)NC(=O)[C@H](Cc2c[nH]c3ccccc23)NC(=O)[C@H](C(C)C)NC(=O)[C@H](Cc2ccccc2)N(C)C(=O)[C@H](C(C)C)NC(=O)[C@H](C)NC(=O)CSC[C@@H](C(=O)NCC(=O)N[C@@H](CCCNC(=N)N)C(=O)N[C@@H](CCCNC(=N)N)C(=O)N[C@@H](CCCNC(=N)N)C(=O)N[C@@H](CCCCN=[N+]=[N-])C(N)=O)NC(=O)[C@H](Cc2ccc(O)cc2)N(C)C(=O)[C@H](Cc2ccc(O)cc2)NC(=O)[C@H](CCCNC(=N)N)NC(=O)[C@H](CCCNC(=N)N)NC(=O)[C@H]([C@@H](C)CC)NC1=O [compound 349] | 1 to 100 nM
CC[C@H](C)[C@@H]1NC(=O)[C@H](Cc2ccc(O)cc2)NC(=O)[C@H](Cc2ccc(O)cc2)NC(=O)[C@H](CC(N)=O)NC(=O)[C@H](Cc2c[nH]c3ccccc23)NC(=O)[C@H](C(C)C)NC(=O)[C@H](Cc2ccccc2)N(C)C(=O)[C@H](C(C)C)NC(=O)[C@H](C)NC(=O)CSC[C@@H](C(=O)NCC(=O)N[C@H](CCCNC(=N)N)C(=O)N[C@H](CCCNC(=N)N)C(=O)N[C@H](CCCNC(=N)N)C(=O)N[C@@H](CCCCN=[N+]=[N-])C(N)=O)NC(=O)[C@H](Cc2ccc(O)cc2)N(C)C(=O)[C@H](Cc2ccc(O)cc2)NC(=O)[C@H](CCCNC(=N)N)NC(=O)[C@H](CCCNC(=N)N)NC(=O)[C@H]([C@@H](C)CC)NC1=O [compound 350] | 1 to 100 nM
CC[C@H](C)[C@@H]1NC(=O)[C@H](Cc2ccc(OCC(=O)O)cc2)NC(=O)[C@H](Cc2ccc(O)cc2)NC(=O)[C@H](CC(N)=O)NC(=O)[C@H](Cc2cn(CC(=O)O)c3ccccc23)NC(=O)[C@H](C(C)C)NC(=O)[C@H](Cc2cccc(Cl)c2)N(C)C(=O)[C@H](C(C)C)NC(=O)[C@H](C)NC(=O)CSC[C@@H](C(=O)NCC(=O)N[C@@H](CCCCN=[N+]=[N-])C(N)=O)NC(=O)[C@H](Cc2ccc(O)cc2)N(C)C(=O)[C@H](Cc2ccncc2)NC(=O)[C@H](CCCCN2CCOCC2)NC(=O)[C@H](CCC(N)=O)NC(=O)[C@H]([C@@H](C)CC)NC1=O [compound 351] | 1 to 100 nM
CC[C@H](C)[C@@H]1NC(=O)[C@H](Cc2ccc(O)cc2)NC(=O)[C@H](Cc2ccc(O)cc2)NC(=O)[C@H](CC(N)=O)NC(=O)[C@H](Cc2c[nH]c3ccccc23)N(C)C(=O)[C@H](C(C)C)NC(=O)[C@H](Cc2ccccc2)N(C)C(=O)[C@H](C(C)C)NC(=O)[C@H](C)NC(=O)CSC[C@@H](C(=O)NCC(=O)NCC(=O)NCC(=O)NCC(=O)N[C@@H](CO)C(=O)N[C@@H](CO)C(=O)N[C@@H](CS)C(N)=O)NC(=O)[C@H](Cc2ccc(O)cc2)N(C)C(=O)[C@H](Cc2ccc(O)cc2)NC(=O)[C@H](CCCNC(=N)N)NC(=O)[C@H](CCCCN)NC(=O)[C@H]([C@@H](C)CC)NC1=O [compound 352] | 1 to 100 nM
CC[C@H](C)[C@@H]1NC(=O)[C@H](Cc2ccc(OCC(=O)O)cc2)NC(=O)[C@H](Cc2ccc(O)cc2)NC(=O)[C@H](CC(N)=O)NC(=O)[C@H](Cc2cn(CC(=O)O)c3ccccc23)NC(=O)[C@H](C(C)C)NC(=O)[C@H](Cc2cccc(Cl)c2)N(C)C(=O)[C@H](C(C)C)NC(=O)[C@H](C)NC(=O)CSC[C@@H](C(=O)NCC(=O)N[C@H](CO)C(=O)N[C@H](CO)C(=O)N[C@H](CO)C(=O)N[C@H](CO)C(=O)N[C@H](CO)C(=O)N[C@@H](CCCCN=[N+]=[N-])C(N)=O)NC(=O)[C@H](Cc2ccc(O)cc2)N(C)C(=O)[C@H](Cc2ccncc2)NC(=O)[C@H](CCCNC(=N)N)NC(=O)[C@H](CCC(=O)NCCOCCOCCOCCOCCOCCOCCOCCOC)NC(=O)[C@H]([C@@H](C)CC)NC1=O [compound 353] | 1 to 100 nM
CC[C@H](C)[C@@H]1NC(=O)[C@H](Cc2ccc(OCC(=O)O)cc2)NC(=O)[C@H](Cc2ccc(O)cc2)NC(=O)[C@H](CC(N)=O)NC(=O)[C@H](Cc2cn(CC(=O)O)c3ccccc23)NC(=O)[C@H](C(C)C)NC(=O)[C@H](Cc2cccc(Cl)c2)N(C)C(=O)[C@H](C(C)C)NC(=O)[C@H](C)NC(=O)CSC[C@@H](C(=O)NCC(=O)N[C@H](CO)C(=O)N[C@H](CO)C(=O)N[C@H](CO)C(=O)N[C@H](CO)C(=O)N[C@H](CO)C(=O)N[C@@H](CCCCN=[N+]=[N-])C(N)=O)NC(=O)[C@H](Cc2ccc(O)cc2)N(C)C(=O)[C@H](Cc2cccc(C(=O)O)c2)NC(=O)[C@H](CCCCN2CCOCC2)NC(=O)[C@H](CCCCN2CCOCC2)NC(=O)[C@H]([C@@H](C)CC)NC1=O [compound 354] | 1 to 100 nM
CC[C@H](C)[C@@H]1NC(=O)[C@H](Cc2ccc(OCC(=O)O)cc2)NC(=O)[C@H](Cc2ccc(O)cc2)NC(=O)[C@H](CC(N)=O)NC(=O)[C@H](Cc2cn(CC(=O)O)c3ccccc23)NC(=O)[C@H](C(C)C)NC(=O)[C@H](Cc2cccc(Cl)c2)N(C)C(=O)[C@H](C(C)C)NC(=O)[C@H](C)NC(=O)CSC[C@@H](C(=O)NCC(=O)N[C@H](CO)C(=O)N[C@H](CO)C(=O)N[C@H](CO)C(=O)N[C@H](CO)C(=O)N[C@H](CO)C(=O)N[C@@H](CCCCN=[N+]=[N-])C(N)=O)NC(=O)[C@H](Cc2ccc(O)cc2)N(C)C(=O)[C@H](Cc2cccc(C(=O)O)c2)NC(=O)[C@H](CCCNC(=N)N)NC(=O)[C@H](CCC(N)=O)NC(=O)[C@H]([C@@H](C)CC)NC1=O [compound 355] | 1 to 100 nM
CC[C@H](C)[C@@H]1NC(=O)[C@H](Cc2ccc(OCC(=O)O)cc2)NC(=O)[C@H](Cc2ccc(O)cc2)NC(=O)[C@H](CC(N)=O)NC(=O)[C@H](Cc2cn(CC(=O)O)c3ccccc23)NC(=O)[C@H](C(C)C)NC(=O)[C@H](Cc2cccc(Cl)c2)N(C)C(=O)[C@H](C(C)C)NC(=O)[C@H](C)NC(=O)CSC[C@@H](C(=O)NCC(=O)N[C@@H](CCCCN=[N+]=[N-])C(N)=O)NC(=O)[C@H](Cc2ccc(O)cc2)N(C)C(=O)[C@H](Cc2cccc(C(=O)O)c2)NC(=O)[C@H](CCCNC(=N)N)NC(=O)[C@H](CCC(N)=O)NC(=O)[C@H]([C@@H](C)CC)NC1=O [compound 356] | < 1 nM
